Biological target: porcine pancreatic lipase (Sus scrofa, UniProt P00591)
Test: Olive oil test: inhibition of porcine pancreatic lipase with respect to triglycerides in olive oil (pH-stat titration)
Settings: read-out: IC50, porcine pancreatic lipase-inhibiting action in vitro with respect to triglycerides in olive oil; substrate olive oil emulsion, pH 9.0, 37.0° C., 10 minutes pre-incubation in ice bath
Experimental: In a heterogeneous reaction, the inhibition of the lipolytic action of porcine pancreatic lipase was determined under the influence of the test substances of Formula I with respect to the triglycerides contained in the test substrate olive oil. The fatty acids released by the lipase were titrated with sodium hydroxide solution to pH 9.0.
The reagents given below were prepared:
A. Gum Arabic Solution 10% (m/V)
200 g gum arabic (Acaciae gummi in accordance with the specifications of the German Pharmacopeia (=DAB)/European Pharmacopeia (=Ph.Eur.) was dissolved in 2000 ml ultrapure water with stirring and if necessary centrifugation. The solution was stored at −20° C. in plastic vessels of capacity of 250 ml. The amount required per day was thawed as required.
B. Sodium Taurocholate Solution 8% (m/V)
8 g sodium taurocholate (FIP) was dissolved in 100 ml ultrapure water.
60.6 mg Tris(hydroxymethyl)aminomethane p.a. (Merck, No. 8382) and 234 mg sodium chloride (p.a.) were dissolved in 100 ml ultrapure water.
D. 0.1 N Sodium Hydroxide Solution […]
1 ml lipase reference suspension was incubated with the respective amount of inhibitor solution for 10 minutes in an ice bath. […] The sodium hydroxide consumption between the 1st and the 5th minute was evaluated. […]

The chains behind the UniProt entries cited, without tags or fusion partners.
UniProt P00591, whole entry: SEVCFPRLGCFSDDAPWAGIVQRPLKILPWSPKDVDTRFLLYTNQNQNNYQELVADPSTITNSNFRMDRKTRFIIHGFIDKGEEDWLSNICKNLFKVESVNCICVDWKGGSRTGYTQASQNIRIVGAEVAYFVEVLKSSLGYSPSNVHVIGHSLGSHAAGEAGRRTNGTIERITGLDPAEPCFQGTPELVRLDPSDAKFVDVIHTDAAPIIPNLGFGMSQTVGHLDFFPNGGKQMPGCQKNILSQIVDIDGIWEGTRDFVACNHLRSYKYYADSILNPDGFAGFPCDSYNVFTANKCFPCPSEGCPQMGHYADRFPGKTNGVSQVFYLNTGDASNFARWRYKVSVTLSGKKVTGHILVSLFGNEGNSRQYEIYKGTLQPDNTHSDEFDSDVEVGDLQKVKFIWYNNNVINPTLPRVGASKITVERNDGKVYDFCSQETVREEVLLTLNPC

CCCCCCC1C(=O)OC1CCCCOC(=O)Nc1ccc(Oc2ccccc2)cc1 (stereo not shown) gave an IC50 of 75 nM.

— patent publication US7074822B2, “Alkyl carbamate-substituted β-lactones, process for their preparation, and pharmaceutical compositions containing them” (Solvay Pharmaceuticals GmbH, priority 2004, dated 2006)
